## Antibody variant affinities, Ab-14 heavy chain, assay B

Values reported by Li et al. 2023, doi:10.1038/s41467-023-39022-2 (FLAb copy).

Antigen: PDVDLGDISGINAS, a 14-residue peptide of the SARS-CoV-2 spike HR2 region.

Parent scFv Ab-14: VH joined to VL by a 15-residue (Gly4Ser)3 linker. Changes lie in the heavy chain CDRs alone.
VH: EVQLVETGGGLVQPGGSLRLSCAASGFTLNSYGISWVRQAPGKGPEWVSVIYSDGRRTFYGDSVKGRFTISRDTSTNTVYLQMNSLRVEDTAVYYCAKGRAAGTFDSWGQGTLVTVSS
VL: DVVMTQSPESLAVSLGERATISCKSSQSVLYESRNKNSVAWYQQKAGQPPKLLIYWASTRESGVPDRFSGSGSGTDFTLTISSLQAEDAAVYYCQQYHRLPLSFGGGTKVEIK

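Phage display of a naive human antibody library on the peptide gave the parent. This is the validation round: designs drawn from the data on random variants, tested in the same kind of assay. Group labels follow the data file (Ctrl: baseline library sampled from a position-specific scoring matrix, with some repeated check sequences; Rand: our label for a block that the file lists under HC and that is probably the random mutants of the ten best first-round binders; En: ensemble of fine-tuned language models; GP: Gaussian process model; GPLM: also part of the Gaussian process libraries; HC: hill climbing; Gen: genetic algorithm; Gibbs: Gibbs sampling; a sequence that several methods proposed may carry one label only). The scFvs were displayed on barcoded MATa yeast, the peptide on MATalpha yeast. Pairs that bind mate more often; barcode pairs of the diploids are counted by sequencing. Each replicate has its own calibration line, from reference interactions of the BCL2 family. The assay was run in six technical replicates.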

Changes read parent residue, position, new residue, counted from the first residue of the VH shown.
Variants here have at most six changes.
Scale: log10 of Kd in nM, estimated from mating counts; low values are strong binders.
Averages over replicates are reported, and they cover detected replicates only.
"ND" marks a missing value. The strain was present, yet no cells mated with the target were sequenced in that replicate, which points to weak or no binding.
Three control strains display no target. For all heavy chain designs, 1% of the pairings with them gave a signal, with a median of 2.08 and one signal in twenty below 0.84, so weak values seen in few replicates may be background.
The range of this assay differs from that of the first round, and the authors advise against merging the two.
The authors' rule: three or more of the six replicates give a measured affinity, fewer mean a poor binder.
Of ten entries with the parent sequence, four were seen in most replicates (averages 0.34 to 2.37), three in one and three in none, so single entries are noisy.

changes	group	log10 Kd, replicates	mean log10 Kd (nM)
T28E+R100S+A101V	GP_Gen	0.90 / 0.13 / -0.15 / -0.53 / -0.27 / 0.20	0.05
T28Q+G61K+R100H	GP_HC	ND / 1.00 / 1.08 / 0.99 / ND / 2.13	1.30
T28S+G61A+A101S+S107K	GP_Gibbs	1.21 / 1.50 / 1.15 / 1.96 / 1.21 / 1.95	1.50
L29V+I51D	Ctrl	ND / ND / 1.81 / ND / ND / ND	1.81
T28S+A101T+T104M	GPLM_Gen	ND / ND / ND / ND / ND / ND	ND
T28A+N30G	Ctrl	0.74 / 2.49 / ND / ND / 0.92 / ND	1.38
T28S+G61A+R100H+S107T	GPLM_Gen	-0.11 / -0.12 / -0.60 / -0.20 / -0.42 / -0.14	-0.27
T28S+R56Q+G61V+S63D+A101T	GP_Gibbs	-0.17 / 0.42 / 0.68 / -0.13 / 0.01 / 0.32	0.19
T28S+S53A+R100K+A101T	GP_Gen	-0.33 / -0.23 / -0.19 / -0.53 / -0.22 / -0.08	-0.26
F27Y	Ctrl	ND / ND / ND / ND / ND / ND	ND
S53A+S107N	GPLM_Gen	0.60 / 0.30 / -0.09 / 0.36 / 0.27 / 0.44	0.32
T28S+L29I+D106S+S107W	Ctrl	ND / ND / ND / ND / ND / ND	ND
T28N+S31E+S53A+G61A+R100N+A101T	En_HC	-0.52 / -0.51 / -0.91 / -0.59 / -0.51 / -0.49	-0.59
N30E+G61Q+S63K+R100Q	GP_Gibbs	ND / ND / ND / 2.45 / 1.81 / ND	2.13
T28H+G61V+R100Q+A101T	GPLM_Gibbs	ND / ND / 1.32 / ND / ND / ND	1.32
S31D+F59V+G61I	GPLM_HC	ND / 0.77 / 1.08 / 2.22 / 2.56 / 0.89	1.50
T28S+G61A+R100K+S107Q	GPLM_Gen	0.39 / 0.54 / 0.21 / 0.50 / 0.18 / 0.59	0.40
S31Q+R56E+A101N+A102C	Ctrl	ND / ND / ND / ND / ND / ND	ND
T28Q+S31M+F59V	GP_HC	ND / ND / ND / ND / 1.67 / 1.72	1.70
T28S+S31D+G61A	GPLM_Gen	0.17 / 0.03 / -0.24 / -0.01 / -0.31 / 0.01	-0.06
G61S+A101L+S107R	GP_HC	ND / ND / 0.36 / 3.20 / 2.24 / 1.07	1.72
L29I+F59A+G61E+G99D	Ctrl	1.18 / ND / ND / 1.98 / 3.39 / 2.49	2.26
A102R	Ctrl	ND / ND / 1.85 / ND / ND / ND	1.85
T28V+S31E+G61Q+R100E	GP_Gibbs	1.95 / 0.85 / 1.29 / 2.11 / 1.59 / 0.72	1.42
D106N+S107T	Ctrl	ND / ND / ND / ND / ND / ND	ND
F27M+S31E+A101T	GP_HC	0.48 / 0.31 / 0.32 / 0.46 / 0.07 / 0.73	0.39
T58E+A101Y	Ctrl	ND / ND / ND / ND / ND / ND	ND
T28D+G61Q+A101T+S107C	GP_Gen	0.41 / 0.61 / 0.98 / -0.03 / 0.68 / 1.13	0.63
T28D+S31N+K65E+R100V+D106S+S107L	Ctrl	ND / ND / ND / 0.44 / ND / ND	0.44
G61A+S63D+A101V	GPLM_Gen	0.24 / -0.07 / 0.15 / -0.17 / -0.20 / 0.17	0.02
S31R+F59Q+Y60E+G61D	Rand	ND / ND / ND / ND / ND / ND	ND
T28S+G61S+A101V+S107Q	GP_Gibbs	-0.60 / -0.63 / -0.47 / 0.30 / -0.69 / -0.44	-0.42
K65S+A102S	Ctrl	ND / ND / ND / ND / ND / ND	ND
N30D+D106L+S107Q	GPLM_HC	ND / ND / ND / ND / ND / ND	ND
T28W+S31E+G61A+A101N	GPLM_Gibbs	0.46 / 0.20 / 0.52 / -0.09 / 0.08 / 0.35	0.25
R100H+A101W+T104R	Ctrl	ND / ND / ND / ND / ND / ND	ND
T28S+G61I+A101S	GPLM_Gen	ND / ND / ND / ND / ND / ND	ND
S31D+G61S+A101S	GP_HC	0.60 / 0.15 / 0.20 / 0.06 / 0.62 / 0.36	0.33
S63A+R100Q+D106R	Ctrl	ND / ND / ND / ND / ND / ND	ND
L29N+R100T	Ctrl	1.83 / 0.61 / 2.08 / 1.18 / 0.12 / 0.10	0.99
S31E+R56M+A101T	GPLM_Gen	ND / ND / ND / 1.14 / ND / ND	1.14
S31D+R56W+F59M+G61I	GP_HC	0.85 / ND / 1.42 / 1.18 / 1.63 / ND	1.27
T28S+F59A+A101E	GPLM_Gen	-0.31 / -0.15 / -0.43 / 0.18 / -0.49 / -0.38	-0.26
S31D+D62A+S63G+G103L+D106I	Rand	ND / ND / ND / ND / ND / ND	ND
T28A+N30D+A101V	Ctrl	0.86 / 0.75 / 0.09 / 0.61 / 0.10 / 0.42	0.47
T28W+S31K+A101W	Ctrl	ND / ND / ND / ND / 2.67 / ND	2.67

Repeated from above, the 7 best binders with a signal in all replicates:

| changes | group | log10 Kd, replicates | mean log10 Kd (nM) |
|---|---|---|---|
| T28N+S31E+S53A+G61A+R100N+A101T | En_HC | -0.52 / -0.51 / -0.91 / -0.59 / -0.51 / -0.49 | -0.59 |
| T28S+G61S+A101V+S107Q | GP_Gibbs | -0.60 / -0.63 / -0.47 / 0.30 / -0.69 / -0.44 | -0.42 |
| T28S+G61A+R100H+S107T | GPLM_Gen | -0.11 / -0.12 / -0.60 / -0.20 / -0.42 / -0.14 | -0.27 |
| T28S+S53A+R100K+A101T | GP_Gen | -0.33 / -0.23 / -0.19 / -0.53 / -0.22 / -0.08 | -0.26 |
| T28S+F59A+A101E | GPLM_Gen | -0.31 / -0.15 / -0.43 / 0.18 / -0.49 / -0.38 | -0.26 |
| T28S+S31D+G61A | GPLM_Gen | 0.17 / 0.03 / -0.24 / -0.01 / -0.31 / 0.01 | -0.06 |
| G61A+S63D+A101V | GPLM_Gen | 0.24 / -0.07 / 0.15 / -0.17 / -0.20 / 0.17 | 0.02 |